Measurements: patent publication US20080260842A1, “PERMEATION ENHANCING COMPOSITIONS FOR ANTICHOLINERGIC AGENTS” (priority 2004, published 2008)

Assays:
[1] = Dose-ranging pharmacokinetic study of transdermal oxybutynin gel in healthy volunteers (Example 18); conditions: for Ratio DEO:OXY (Cav): steady-state; for Treatment A/Treatment B Ratio - N-Desethyloxybutynin / Treatment A/Treatment B Ratio - N-Desethyloxybutynin, mean: plasmatic ratio of metabolite; for Treatment A/Treatment B Ratio - N-Desethyloxybutynin: individual subjects; for Treatment A/Treatment B Ratio - N-Desethyloxybutynin, mean: mean of subjects 1-8
Description: The study was an open-label, randomized, parallel, three-treatment, dose-ranging pharmacokinetic study. […] The subjects were aged 19 to 53 (mean 35) years.
The oxybutynin transdermal gel formulation contained 3% w/w of oxybutynin base in a hydroalcoholic non-occlusive matrix including the unique combination of permeation enhancers of the present invention. Three different doses of the gel were administered topically once a day during 20 consecutive days: treatment A consisted in a daily amount of 1.4 g applied gel, corresponding to 42 mg oxybutynin; treatment B consisted in a daily amount of 2.0 g applied gel, corresponding to 60 mg oxybutynin; and treatment C consisted in a daily amount of 2.8 g applied gel, corresponding to 84 mg oxybutynin.

[2] = Pharmacokinetic study of R/S OXY and DEO enantiomers, transdermal oxybutynin gel (Example 20); type: in vivo, human; conditions: single-dose topical 84 mg OXY gel
Description: Ten healthy volunteers (Asian Indians, 60% female) aged 18 to 35 (mean 29) years old were treated with 2.8 g of a formulation of the present invention containing 3% w/w of OXY base (84 mg OXY), administered topically as a single dose on the abdomen (700 cm^2).

Row | Compound | Ratio DEO:OXY (Cav) ([1]; Treatment A: 42 mg oxybutynin daily) | Ratio DEO:OXY (Cav) ([1]; Treatment B: 60 mg oxybutynin daily) | Ratio DEO:OXY (Cav) ([1]; Treatment C: 84 mg oxybutynin daily) | Treatment A/Treatment B Ratio - N-Desethyloxybutynin ([1]; scheduled time 192) | Treatment A/Treatment B Ratio - N-Desethyloxybutynin ([1]; scheduled time 216) | Treatment A/Treatment B Ratio - N-Desethyloxybutynin, mean ([1]; scheduled time 216) | Treatment A/Treatment B Ratio - N-Desethyloxybutynin ([1]; scheduled time 240) | Treatment A/Treatment B Ratio - N-Desethyloxybutynin, mean ([1]; scheduled time 240) | Treatment A/Treatment B Ratio - N-Desethyloxybutynin ([1]; scheduled time 264) | Treatment A/Treatment B Ratio - N-Desethyloxybutynin, mean ([1]; scheduled time 264) | Treatment A/Treatment B Ratio - N-Desethyloxybutynin ([1]; scheduled time 288) | Treatment A/Treatment B Ratio - N-Desethyloxybutynin ([1]; scheduled time 312) | Treatment A/Treatment B Ratio - N-Desethyloxybutynin ([1]; scheduled time 336) | Treatment A/Treatment B Ratio - N-Desethyloxybutynin, mean ([1]; scheduled time 336) | Treatment A/Treatment B Ratio - N-Desethyloxybutynin ([1]; scheduled time 360) | Treatment A/Treatment B Ratio - N-Desethyloxybutynin, mean ([1]; scheduled time 360) | R-DEO Cmax levels relative to R-OXY Cmax levels [2] [fold]
1 | CCNCC#CCOC(=O)C(O)(c1ccccc1)C1CCCCC1 (centres unmarked) [N-desethyloxybutynin] | 1.0 | 0.9 | 1.3 | 0 | 1.6 (2×) and 2.4141 (2×) and 0.987 (2×) and 1.9012 (2×) and 1.8422 (2×) | 1.71 | 0.6358 (2×) and 2.2869 (2×) and 1.9864 (2×) and 1.3309 (2×) | 1.68 | 1.5791 (2×) and 4.4699 (2×) and 1.7418 (2×) and 1.7913 (2×) and 1.6346 (2×) and 0.8027 (2×) | 1.95 | 1.29 (2×) and 4.435 (2×) and 0.9392 (2×) and 1.166 (2×) | 1.472 (2×) and 4.311 (2×) and 3.333 (2×) and 2.905 (2×) | 6.471 (2×) and 1.349 (2×) | 2.21 | 1.162 (2×) and 2.017 (2×) and 1.977 (2×) and 2.408 (2×) and 1.306 (2×) | 1.97 | –
2 | CCNCC#CCOC(=O)[C@](O)(c1ccccc1)C1CCCCC1 [R-DEX] | – | – | – | – | – | – | – | – | – | – | – | – | – | – | – | – | 1.8

“And” between values parts separate entries of the source, which are not always exact repeats. Equal values may be shown once.
